Most compounds without a hit are left out; they make up all but 13% or so of the library.
JMJD2E inh = JMJD2E (human) inhibition; B2RXH2; JMJD2E catalytic domain, FDH-coupled NADH fluorescence (FDH is formaldehyde dehydrogenase); Potency, µM (series often up to 57.1 µM), without a hit: top-dose activity change, negative = inhibition, usual class: inhibitors; hit rate 1.6% among 230,000; AID 2147; active = well fitted inhibition curve with a large enough effect, not every such curve was filed as active; inconclusive = small, poorly fitted or top-dose-only effect, or another doubt; inactive = no such curve, though single readings can be large or run the other way;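 also: potency is read from the fitted curve at half-maximal effect; 0% = wells with enzyme and -100% = buffer wells without enzyme; nearly all actives have a fitted effect of over 50% in size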
G9a inh = inhibitors of human histone lysine methyltransferase G9a | Q96KQ7 | G9a H3K9 monomethylation, AlphaScreen, 2 h | Potency, µM (titrated, usually from 102 µM), without a hit: at the top dose activity, negative = inhibition, actives largely listed as inhibitors | hit rate 8.8% among 350,000 | AID 504332; also: potency is read from the fitted curve at half-maximal effect; % is scaled to controls: 0 for no effect and ±100 for the full control effect; nearly all actives have a fitted effect of over 75% in size
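Methyltransferase reactions run at room temperature for 2 h (20 nM enzyme, 500 nM biotin-H3K9 peptide, 20 uM SAM) after a 15 min compound preincubation; product detected by AlphaScreen beads and anti-H3K9me1 antibody.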
miR-21 reporter = miR-21 reporter, rising signal; HeLa miR-21 FLuc reporter, luciferase, 48 h; Potency, µM (doses to about 38.3 µM), for inactives: at the highest dose reporter change, positive = more light; 340,000 tested, under 10 active; AID 2288; active = well fitted rising curve with a large enough effect; inconclusive = small, poorly fitted or top-dose-only effect; inactive = no such curve, though single readings can be large or run the other way;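 further: % of control where 0% means no effect; miR-21 action dims this reporter so a rising signal means less miR-21 action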
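HeLa miR-21-FLuc reporter line, endogenous miR-21; 2000 cells/well in DMEM/10% FBS; compound titration up to ~40uM final, 48 h, 37 degree Celsius; luciferase detection reagent, 15 min lysis, CCD luminescence.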
ALDH1A1 inh = ALDH1A1 (human) enzyme inhibition. P00352. Purified ALDH1A1, NADH fluorescence, propionaldehyde substrate. Potency, µM (top dose mostly 75.3 µM), inactives show top-dose activity, negative = inhibition, actives largely listed as inhibitors. hit rate 7.3% among 220,000. AID 1030; active = well fitted inhibition curve with a large enough effect, not every such curve was filed as active; inconclusive = small, poorly fitted or top-dose-only effect, or another doubt; inactive = no such curve, though single readings can be large or run the other way;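 also: potency is read from the fitted curve at half-maximal effect; plate controls were no enzyme wells and a reference inhibitor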
LMNA splice mod = LMNA splicing modulation; HeLa LMNA splicing GFP/RFP minigene ratio, 48 h; Potency, µM (series often up to 46.1 µM), for inactives: top-dose ratio change, negative = inhibition, actives largely listed as inhibitors; hit rate 0.01% among 200,000; AID 1487; active = well fitted inhibition curve with a large enough effect in the signal ratio, with a control signal flat, not every such curve was filed as active; inconclusive = small, poorly fitted or top-dose-only effect, or effect the other way, or a change in a side signal; the % refers to the signal ratio; also: potency is read from the fitted curve at half-maximal effect; % is scaled to controls: 0 for no effect and ±100 for the full control effect
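Read-out is the ratio of GFP to DsRed2 object intensity, acquired by 488 nm laser-scanning cytometry on HeLa lamin A-EGFP minigene reporter cells. Compound incubation 48 hrs at 37 °C in Opti-MEM with 2% FBS; DMSO 0.5% final.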
Sfp inh = Sfp phosphopantetheinyl transferase inhibition; Q9F4F7; Biochemical Sfp PPTase activity, qHTS; Potency, µM, for the others: max response, negative = inhibition, most hits filed as inhibitors; 310,000 tested, 3.5% active; AID 1490; active = well fitted inhibition curve with a large enough effect; inconclusive = small, poorly fitted or top-dose-only effect, or another doubt; inactive = no such curve, though single readings can be large or run the other way;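 also: the enzyme is Sfp with the accession as filed and its product quenches rhodamine fluorescence; potency is read from the fitted curve at half-maximal effect; 0% = enzyme reaction without inhibitor and -100% = no enzyme wells; top concentration of the series not given in the record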
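Fluorescence-quenching assay: 15 nM Sfp-PPTase preincubated 15 min at room temperature with compound, then 5 uM rhodamine-CoA and 12.5 uM BHQ-2-labelled YbbR peptide added. Fluorescence (ex 525/em 598 nm) read at start and after 30 min; difference gives rate.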
Starred values were filed as active, the others as inactive; ? = inconclusive; / = no result; [ ] = remark or other dose. Unless noted, calls follow the shape of the dose curve; as a rule, active = well fitted curve in the direction sought with a large enough effect; inconclusive = small, poorly fitted or top-dose-only effect, or another doubt; inactive = no such curve, though single readings can be large; an effect the other way counts as inactive or inconclusive.

1	Cc1cc(/C=C(\C#N)C(=O)OCC#N)c(C)n1CC(C)C
2	Cc1c(C(=O)O)cccc1-n1c(C)cc(/C=C(/C#N)C(=O)NCc2ccccc2)c1C
3	O=C(O)c1cccc(-n2nc(-c3ccc(Cl)c([N+](=O)[O-])c3)c3ccccc3c2=O)c1
4	CC(C)N1CCc2nc(SCC(=O)Nc3cccc(F)c3)[nH]c(=O)c2C1
5	CCOC(=O)/C(C#N)=C/c1cc(C)n(-c2ccc(C)cc2)c1C
6	CCCN[C@@H](C)C(=O)Nc1c(C)csc1C(=O)OC
entry no. | 1 | 2 | 3 | 4 | 5 | 6
JMJD2E inh | -28.2% | -1.3% | / | / | ? | 4.4%[25.5 µM]
G9a inh | -11.7%[59 µM] | 50.1µM* | ? | -31.7%[59 µM] | 20.3% | 10.6%[21.5 µM]
miR-21 reporter | -6.1% | -10.7% | -2.1% | -3.1% | -55.7% | /
ALDH1A1 inh | 25.1µM* | 3.0% | / | / | 11.2µM* | -0.1%[20.9 µM]
LMNA splice mod | ? | / | / | / | ? | 1.5%
Sfp inh | -4.0% | 8.3% | 12.9% | / | -8.9% | 8.4%

In another format: entries from further up
No.	JMJD2E inh	G9a inh	miR-21 reporter	ALDH1A1 inh	LMNA splice mod	Sfp inh	Structure
6	4.4%[25.5 µM]	10.6%[21.5 µM]	/	-0.1%[20.9 µM]	1.5%	8.4%	CCCN[C@@H](C)C(=O)Nc1c(C)csc1C(=O)OC
1	-28.2%	-11.7%[59 µM]	-6.1%	25.1µM*	?	-4.0%	Cc1cc(/C=C(\C#N)C(=O)OCC#N)c(C)n1CC(C)C
2	-1.3%	50.1µM*	-10.7%	3.0%	/	8.3%	Cc1c(C(=O)O)cccc1-n1c(C)cc(/C=C(/C#N)C(=O)NCc2ccccc2)c1C

(cont.)
7	CCOC(=O)C(=CNNc1c(C)csc1C(=O)OC)C(=O)OCC
8	CCOc1ccccc1CN1CCNC(=O)C1CC(=O)NCCC1=CCCCC1 (stereo unspecified)
9	CCOc1ccccc1CN1CCNC(=O)C1CC(=O)NCCCn1cccn1 (stereo unspecified)
10	COc1ccccc1CN1CCNC(=O)C1CC(=O)NCCCN1CCCC1=O (stereo unspecified)
11	O=C(CC1C(=O)NCCN1Cc1cccc(C(F)(F)F)c1)NCCCOc1cccnc1 (stereo unspecified)
12	COc1ccccc1CN1CCNC(=O)C1CC(=O)NCCC1=CCCCC1 (stereo unspecified)
entry no. | 7 | 8 | 9 | 10 | 11 | 12
JMJD2E inh | -9.9% | / | / | / | / | ?
G9a inh | 8.91µM* | ? | 79.4µM* | 70.8µM* | ? | /
miR-21 reporter | 0.1% | -0.9% | -2.1% | 0.4% | 0.3% | -1.4%
ALDH1A1 inh | / | / | / | / | / | 25.1µM*
LMNA splice mod | / | / | / | / | / | ?
Sfp inh | -24.6% | 4.6% | 4.0% | -6.4% | 2.0% | -11.6%

13	O=C(CC1C(=O)NCCN1Cc1ccccc1)NCCCOc1cccnc1 (stereo unspecified)
14	CCOc1ccccc1CN1CCNC(=O)C1CC(=O)NCCc1ccccn1 (stereo unspecified)
15	COc1cccc(CN2CCNC(=O)C2CC(=O)NCCCN2CCCC2=O)c1 (stereo unspecified)
16	COc1ccc(C(=O)N/C(=C\c2cn(S(=O)(=O)N(C)C)c3ccccc23)C(=O)N2CCOCC2)cc1
17	COc1ccc2nc3sc(C(=O)Nc4cc(Cl)c(OC)cc4OC)cc3cc2c1
18	COc1ccc(CN2CCNC(=O)C2CC(=O)NCCCn2cccn2)cc1C (stereo unspecified)
entry no. | 13 | 14 | 15 | 16 | 17 | 18
JMJD2E inh | / | / | / | / | / | /
G9a inh | 50.1µM* | / | / | 1.9% | ? | 11.1%[0.501 µM]
miR-21 reporter | 0.1% | -8.7% | -0.9% | 4.2% | -3.6% | -2.6%
ALDH1A1 inh | / | / | / | / | / | /
LMNA splice mod | / | / | / | / | / | /
Sfp inh | -0.1% | 16.5% | -6.9% | 7.8% | / | 9.9%

19	COc1ccccc1CN1CCNC(=O)C1CC(=O)NCCCn1cccn1 (stereo unspecified)
20	O=C(CC1C(=O)NCCN1Cc1cccc(Oc2ccccc2)c1)NCCCn1cccn1 (stereo unspecified)
21	CCc1cc(CNC(=O)CC2C(=O)NCCN2Cc2cccc(OC)c2)on1 (stereo unspecified)
22	CCc1cc(CNC(=O)CC2C(=O)NCCN2Cc2c(F)cccc2Cl)on1 (stereo unspecified)
23	COc1ccc2ccccc2c1CNC(=O)CC1C(=O)NCCN1CC(C)C (stereo unspecified)
24	COc1ccc(-n2ccnc(NCCc3ccccc3)c2=O)cc1OC
25	C=CCc1ccccc1OCc1nc2ccccc2n1CC
26	c1ccc(-c2nnc(SCC3CCCO3)nc2-c2ccccc2)cc1 (stereo unspecified)
27	N#C/C(=C/c1ccc(F)cc1)c1nnc(NC(=O)c2ccccc2)s1
entry no. | 19 | 20 | 21 | 22 | 23 | 24 | 25 | 26 | 27
JMJD2E inh | -24.4% | -12.8% | ? | -4.4% | -24.2% | / | / | -2.1% | ?
G9a inh | -2.5% | 50.1µM* | 56.2µM* | 10.8% | 44.7µM* | ? | 54.0%[59 µM] | / | 33.4%[59 µM]
miR-21 reporter | -3.2% | -0.8% | -1.6% | 6.2% | -2.5% | -2.2% | -2.0% | 4.5% | -3.2%
ALDH1A1 inh | 25.1µM* | -0.1% | ? | ? | -11.5% | / | / | 12.6µM* | /
LMNA splice mod | / | / | / | / | / | / | / | / | /
Sfp inh | -2.2% | 11.3% | -1.0% | 12.0% | 7.8% | / | / | -22.3% | 2.1%
